Experiments:
[1] = molecular target: CBP BRD protein (Homo sapiens, UniProt Q92793); experiment: CBP inhibitory activity, TR-FRET assay of CBP bromodomain with Ac-H4 peptide; details: read-out: CBP BRD IC50, CBP BRD protein 7.5 nM, Ac-H4 peptide 85 nM, 2 hours at room temperature
Protocol: CBP inhibitory activity was measured using a time resolved fluorescence resonance energy transfer (TR-FRET) experiment to verify the activity of CBP bromodomain.
(§1) The assay was performed in a final volume of 14 µl, optimized based on a CREBBP time resolved fluorescence resonance energy transfer (TR-FRET) assay kit (BPS Bioscience, cat. 32619) to maximize an assay window, and performed in a final volume of 14 µl, while maximizing the assay window. A TR-FRET fluorescence acceptor and a Tb donor were diluted in an assay buffer containing 2-[4-(2-hydroxyethyl)piperazin-1-yl]ethanesulfonic acid (hereafter, referred to as an assay buffer, BPS Bioscience, cat. 33012), and 3 µl of each solution was transferred to all wells of a white 384-low-volume well plate (Corning, cat. 4513). 2 µl of 4X Ac-H4 peptide (final concentration 85 nM) was transferred to high control wells and test wells. Each compound was prepared at 10 concentration points by serially diluting 3-fold from the highest concentration in a dimethyl sulfoxide solvent. The compound at each concentration was then diluted in the assay buffer to prepare a diluted compound solution that was 4-fold more concentrated than the final concentration. 2 µl of each compound or dimethyl sulfoxide prepared in this way was distributed into an assay plate so that the final test concentration was a minimum of 0.5 µM to a maximum of 10 µM (final dimethyl sulfoxide concentration 1%). 6 µL of 1X assay buffer was added to low control wells and 2 µl was added to high control and test wells. Then, 2 µl of 4X CBP BRD protein (final concentration 7.5 nM, BPS bioscience, cat 31128) was added to initiate a PPI reaction. The plate was reacted at room temperature for 2 hours before measuring the signal. The TR-FRET signal was measured using an EnVision Multilabel plate reader (PerkinElmer; Mirror LNACE/DELFIA Dual/Bias).
For data analysis, the values of each well were obtained using a TR-FRET ratio ((Signal 665 nm/Signal 615 nm)X20000. Data analysis was performed using the TR-FRET ratio ((Signal 665 nm/Signal 615 nm)X20000. Data were reported as percent inhibition compared to control wells based on the following equation: %Activity = ((FRETcompound - FRETLow av)/(FRETHigh av - FRETLow av))X100. IC50 analysis was determined by standard 4 parameter curve fitting according to an algorithm using GraphPad Prism 7.0 (GraphPad Software Inc., La Jolla, CA, USA). All data are expressed as mean ± standard error of the mean (SEM).

Amino acid sequences for entries named in this document (tags omitted). Residues count along the entry.
UniProt Q92793, 1085-1192 limits assumed: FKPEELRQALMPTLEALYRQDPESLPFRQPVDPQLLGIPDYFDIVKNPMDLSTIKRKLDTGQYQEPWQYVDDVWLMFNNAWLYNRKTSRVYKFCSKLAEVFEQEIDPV

[2] = molecular target: BRD4 (BD1) protein (Homo sapiens, UniProt O60885); experiment: BRD4 inhibitory activity, TR-FRET assay of BRD4 bromodomain with Ac-H4 peptide; details: read-out: BRD4 (BD1) IC50, BRD4 (BD1) protein 7.5 nM, Ac-H4 peptide 15 nM, 2 hours at room temperature
Protocol: BRD4 inhibitory activity was measured using a time resolved fluorescence resonance energy transfer (TR-FRET) experiment to verify the activity of BRD4 bromodomain.
as §1, with “32613)” for “32619)”, “15” for “85”, “BRD4 (BD1)” for “CBP BRD”, “31040)” for “31128)”, “Dual/Bias). For data analysis, the values of each well were obtained using a TR-FRET ratio ((Signal 665 nm/Signal 615 nm) X20000. Data analysis was performed using the TR-FRET ratio ((Signal 665 nm/Signal 615 nm) X20000. Data were reported as percent inhibition compared to control wells based on the following equation: %Activity = ((FRETcompound - FRETLow av)/(FRETHigh av - FRETLow av)) X100. IC50 analysis was determined by standard 4 parameter curve fitting according to an algorithm using GraphPad Prism 7.0 (GraphPad Software Inc., La Jolla, CA, USA). All data are expressed as mean ± standard error of the mean (SEM).” for “Dual/Bias).”

Structure (SMILES) | IC50 [1] [µM] | IC50 [2] [µM]
CNC(=O)c1ccc(-c2ccc3c(c2)nc(-c2cnc[nH]2)n3-c2ccc3c(c2)n(C)c(=O)n3C)cc1F | > 5 | > 5
CNC(=O)c1ccc(-c2ccc3c(c2)nc(-c2cccc(Cl)c2Cl)n3-c2ccc3c(c2)n(C)c(=O)n3C)cc1F | 0.5 to 5 | > 5
CNC(=O)c1ccc(-c2ccc3c(c2)nc(-c2c[nH]c4ncccc24)n3-c2ccc3c(c2)n(C)c(=O)n3C)cc1F | < 0.5 | 0.5 to 5
Cn1cncc1-c1nc2cc(-c3cnc(N)s3)ccc2n1-c1ccc2c(c1)n(C)c(=O)n2C | 0.5 to 5 | > 5
CNC(=O)c1ccc(-c2ccc3c(c2)nc(-c2cnc(C)n2C)n3-c2ccc3c(c2)n(C)c(=O)n3C)cc1F | 0.5 to 5 | > 5
COc1cccc(-c2ccc3c(c2)nc(-c2cncn2C)n3-c2ccc3c(c2)n(C)c(=O)n3C)c1 | < 0.5 | > 5
CNC(=O)c1ccc(-c2ccc3c(c2)nc(CCN(C)C)n3-c2ccc3c(c2)n(C)c(=O)n3C)cc1F | > 5 | > 5
Cn1cncc1-c1nc2cc(C3=NCCS3)ccc2n1-c1ccc2c(c1)n(C)c(=O)n2C | < 0.5 | > 5
CNC(=O)c1ccc(-c2ccc3c(c2)nc(-c2cncn2C)n3-c2ccc3c(c2)n(C)c(=O)n3C)cc1 | < 0.5 | 0.5 to 5
CNS(=O)(=O)c1ccc2c(c1)nc(-c1cncn1C)n2-c1ccc2c(c1)n(C)c(=O)n2C | > 5 | > 5
Cn1cncc1-c1nc2cc(-c3cn(CC(=O)NCc4ccccc4)nn3)ccc2n1-c1ccc2c(c1)n(C)c(=O)n2C | 0.5 to 5 | > 5
Cn1cncc1-c1nc2cc(-c3ccc4c(c3)OCCO4)ccc2n1-c1ccc2c(c1)n(C)c(=O)n2C | < 0.5 | > 5
CNC(=O)c1ccc(-c2ccc3c(c2)nc(C2CC2)n3-c2ccc3c(c2)n(C)c(=O)n3C)cc1F | 0.5 to 5 | > 5
CNC(=O)c1ccc(-c2ccc3c(c2)nc(C(C)(C)C(=O)Nc2ccccc2)n3-c2ccc3c(c2)n(C)c(=O)n3C)cc1F | > 5 | > 5
Cn1ccc(-c2ccc3c(c2)nc(-c2cncn2C)n3-c2ccc3c(c2)n(C)c(=O)n3C)n1 | < 0.5 | > 5
Cn1cncc1-c1nc2cc(-c3ccc(C(=O)O)c(F)c3)ccc2n1-c1ccc2c(c1)n(C)c(=O)n2C | < 0.5 | > 5
CNC(=O)c1ccc(-c2ccc3c(c2)nc(C2CCOCC2)n3-c2ccc3c(c2)n(C)c(=O)n3C)cc1F | > 5 | > 5
Cn1cncc1-c1nc2cc(-c3ccncc3)ccc2n1-c1ccc2c(c1)n(C)c(=O)n2C | < 0.5 | > 5
CNC(=O)c1ccc(-c2ccc3c(c2)nc(-c2cccnc2C)n3-c2ccc3c(c2)n(C)c(=O)n3C)cc1F | 0.5 to 5 | > 5
Cn1cncc1-c1nc2cc(-c3cnn(C)c3C(F)(F)F)ccc2n1-c1ccc2c(c1)n(C)c(=O)n2C | 0.5 to 5 | > 5
Cn1cncc1-c1nc2cc(-c3ccccc3)ccc2n1-c1ccc2c(c1)n(C)c(=O)n2C | 0.5 to 5 | > 5
Cn1cncc1-c1nc2cc(-c3ccccc3C#N)ccc2n1-c1ccc2c(c1)n(C)c(=O)n2C | 0.5 to 5 | > 5

Structure (SMILES) | IC50 [1] [µM] | IC50 [2] [µM]
CNC(=O)c1ccc(-c2ccc3c(c2)nc(-c2ccccn2)n3-c2ccc3c(c2)n(C)c(=O)n3C)cc1F | > 5 | > 5
Cc1noc(C)c1-c1ccc2c(c1)nc(-c1cncn1C)n2-c1ccc2c(c1)n(C)c(=O)n2C | 0.5 to 5 | > 5
CNC(=O)c1ccc(-c2ccc3c(c2)nc(-c2cccnc2OC)n3-c2ccc3c(c2)n(C)c(=O)n3C)cc1F | < 0.5 | > 5
CNC(=O)c1ccc(-c2ccc3c(c2)nc(C(C)(C)OC)n3-c2ccc3c(c2)n(C)c(=O)n3C)cc1F | 0.5 to 5 | > 5
Cn1cncc1-c1nc2cc(-c3cccc(F)c3)ccc2n1-c1ccc2c(c1)n(C)c(=O)n2C | 0.5 to 5 | > 5
CNC(=O)c1ccc(-c2ccc3c(c2)nc(-c2cccc(C)c2)n3-c2ccc3c(c2)n(C)c(=O)n3C)cc1F | 0.5 to 5 | > 5
CNC(=O)c1ccc(-c2ccc3c(c2)nc(-c2cccc(-c4cnn(C)c4)c2C)n3-c2ccc3c(c2)n(C)c(=O)n3C)cc1F | 0.5 to 5 | > 5
Cn1cncc1-c1nc2cc(-c3cnn(CC(F)F)c3)ccc2n1-c1ccc2c(c1)n(C)c(=O)n2C | 0.5 to 5 | > 5
CNC(=O)c1ccc2c(c1)nc(-c1cncn1C)n2-c1ccc2c(c1)n(C)c(=O)n2C | 0.5 to 5 | > 5
CNC(=O)c1ccc(-c2ccc3c(c2)nc(-c2cnn(C)c2)n3-c2ccc3c(c2)n(C)c(=O)n3C)cc1F | 0.5 to 5 | > 5
Cn1cncc1-c1nc2cc(-c3ccc4c(c3)CCO4)ccc2n1-c1ccc2c(c1)n(C)c(=O)n2C | 0.5 to 5 | > 5
Cn1cncc1-c1nc2cc(-c3ccc(O)cc3)ccc2n1-c1ccc2c(c1)n(C)c(=O)n2C | < 0.5 | > 5
CNC(=O)c1ccc(-c2ccc3c(c2)nc(-c2ccoc2)n3-c2ccc3c(c2)n(C)c(=O)n3C)cc1F | 0.5 to 5 | > 5
Cn1cncc1-c1nc2cc(N3CCCCC3)ccc2n1-c1ccc2c(c1)n(C)c(=O)n2C | 0.5 to 5 | > 5
CNC(=O)c1ccc(-c2ccc3c(c2)nc(-c2ccccc2C(F)(F)F)n3-c2ccc3c(c2)n(C)c(=O)n3C)cc1F | 0.5 to 5 | > 5
Cn1cncc1-c1nc2cc(-c3ccn(C)c(=O)c3)ccc2n1-c1ccc2c(c1)n(C)c(=O)n2C | 0.5 to 5 | > 5
CNC(=O)c1ccc(-c2ccc3c(c2)nc(-c2ccc(O)nc2)n3-c2ccc3c(c2)n(C)c(=O)n3C)cc1F | > 5 | 0.5 to 5
CNC(=O)c1cc(-c2ccc3c(c2)nc(-c2cncn2C)n3-c2ccc3c(c2)n(C)c(=O)n3C)ccc1F | 0.5 to 5 | 0.5 to 5
COC(=O)c1ccc(-c2ccc3c(c2)nc(-c2cncn2C)n3-c2ccc3c(c2)n(C)c(=O)n3C)cn1 | < 0.5 | > 5
CNC(=O)c1ccc(-c2ccc3c(c2)nc(-c2ccsc2C)n3-c2ccc3c(c2)n(C)c(=O)n3C)cc1F | < 0.5 | > 5
Cn1cncc1-c1nc2cc(-c3cnn(CC(N)=O)c3)ccc2n1-c1ccc2c(c1)n(C)c(=O)n2C | 0.5 to 5 | > 5
CNC(=O)c1ccc(-c2ccc3c(c2)nc(-c2ccnn2C)n3-c2ccc3c(c2)n(C)c(=O)n3C)cc1F | 0.5 to 5 | > 5
